## Antibody variant affinities, Ab-95 light chain, assay 2

From the AlphaSeq antibody data of Engelhart et al. 2022 (doi:10.1038/s41597-022-01779-4), copy in the FLAb collection.

Target peptide (SARS-CoV-2 spike, HR2 region): PDVDLGDISGINAS

Ab-95 is the parent antibody, in scFv form: VH, then three GGGGS repeats, then VL. The heavy chain is unchanged in all variants.
VH: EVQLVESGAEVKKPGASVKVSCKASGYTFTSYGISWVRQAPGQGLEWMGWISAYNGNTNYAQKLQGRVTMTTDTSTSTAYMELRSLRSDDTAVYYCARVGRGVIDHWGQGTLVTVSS
VL: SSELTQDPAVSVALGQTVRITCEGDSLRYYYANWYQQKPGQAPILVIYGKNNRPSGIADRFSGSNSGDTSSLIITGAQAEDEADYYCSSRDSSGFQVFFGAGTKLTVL

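The starting antibody came from a phage panning campaign against this peptide. In library AAYL52, one, two or three CDR residues were substituted; doubles and triples were drawn at random. The assay is AlphaSeq: two haploid yeast populations carry antibody and antigen on their surface. After mating in shaken culture at 30 °C for 16 h, diploids were selected and their barcode pairs sequenced. A regression on co-assayed BCL2-family reference pairs converts the normalised counts of each replicate to an apparent Kd. There are three technical replicates.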

The parent's light chain CDRs are EGDSLRYYYAN, GKNNRPS, SSRDSSGFQVF; each variant's own CDRs replace them letter for letter. The read-out is the apparent dissociation constant on a log10 scale (nM): the lower, the stronger. Averages over replicates are reported, and they cover detected replicates only. "n.d." marks a missing value. The strain was present, yet no cells mated with the target were sequenced in that replicate, which points to weak or no binding.

{"CDR-L1": "EGDSLRYYYAN", "CDR-L2": "GKNNRSS", "CDR-L3": "SSRVSSGLQVF", "replicates, log10 nM": "4.25 3.98 4.06", "mean log10 Kd (nM)": "4.10", "control signals": "2 of 9 (4.10)"}
{"CDR-L1": "EGDYLRYYYAN", "CDR-L2": "GGNNRPS", "CDR-L3": "SSRDSSGFQRF", "replicates, log10 nM": "3.07 2.92 2.39", "mean log10 Kd (nM)": "2.80", "control signals": "4 of 9 (4.09)"}
{"CDR-L1": "EGDSCIYYYAN", "CDR-L2": "GKNNRPS", "CDR-L3": "SSRDSSRFQVF", "replicates, log10 nM": "n.d. n.d. n.d.", "mean log10 Kd (nM)": "n.d.", "control signals": "0 of 9"}
{"CDR-L1": "EQDSLRYYYAN", "CDR-L2": "GKNNRTS", "CDR-L3": "SSRDSSGVQVF", "replicates, log10 nM": "4.74 n.d. n.d.", "mean log10 Kd (nM)": "4.74", "control signals": "6 of 9 (3.62)"}
{"CDR-L1": "EGDLLPYYYAN", "CDR-L2": "GKNNRPS", "CDR-L3": "SSRDSSGFQSF", "replicates, log10 nM": "n.d. 4.05 n.d.", "mean log10 Kd (nM)": "4.05", "control signals": "4 of 9 (4.10)"}
{"CDR-L1": "ELDSQRNYYAN", "CDR-L2": "GKNNRPS", "CDR-L3": "SSRDSSGFQVF", "replicates, log10 nM": "2.36 2.77 2.00", "mean log10 Kd (nM)": "2.38", "control signals": "4 of 9 (4.57)"}
{"CDR-L1": "DGDSFRYYYAN", "CDR-L2": "GKNNRPS", "CDR-L3": "SSRDSSLFQVF", "replicates, log10 nM": "3.24 3.04 n.d.", "mean log10 Kd (nM)": "3.14", "control signals": "2 of 9 (3.72)"}
{"CDR-L1": "EGDSLRYYYAW", "CDR-L2": "GKNNVPS", "CDR-L3": "SSRDSSGFQVF", "replicates, log10 nM": "4.07 3.81 4.19", "mean log10 Kd (nM)": "4.02", "control signals": "3 of 9 (3.63)"}
{"CDR-L1": "EGDSLRYYYAN", "CDR-L2": "GKNNIPS", "CDR-L3": "SSRDASGFQVD", "replicates, log10 nM": "n.d. n.d. n.d.", "mean log10 Kd (nM)": "n.d.", "control signals": "0 of 9"}
{"CDR-L1": "EGDSLRYYYAN", "CDR-L2": "DKNNRPS", "CDR-L3": "SSRNSSGFEVF", "replicates, log10 nM": "4.04 2.95 2.53", "mean log10 Kd (nM)": "3.17", "control signals": "6 of 9 (4.30)"}
{"CDR-L1": "VGDSLRYYYAA", "CDR-L2": "GKNNRPS", "CDR-L3": "SSRDSSGVQVF", "replicates, log10 nM": "4.22 5.31 4.91", "mean log10 Kd (nM)": "4.81", "control signals": "3 of 9 (4.83)"}
{"CDR-L1": "EGDWLRYTYAN", "CDR-L2": "GKNNRDS", "CDR-L3": "SSRDSSGFQVF", "replicates, log10 nM": "2.52 2.45 2.64", "mean log10 Kd (nM)": "2.54", "control signals": "4 of 9 (3.55)"}
{"CDR-L1": "EGDSLRYYYAN", "CDR-L2": "GRNNRHS", "CDR-L3": "SSRDSSGFQVM", "replicates, log10 nM": "3.40 2.22 3.76", "mean log10 Kd (nM)": "3.13", "control signals": "4 of 9 (4.61)"}
{"CDR-L1": "EGRYLRYYYAS", "CDR-L2": "GKNNRPS", "CDR-L3": "SSRDSSGFQVF", "replicates, log10 nM": "3.89 4.99 3.98", "mean log10 Kd (nM)": "4.28", "control signals": "5 of 9 (4.00)"}
{"CDR-L1": "EDDSLRYYYAN", "CDR-L2": "GKNNRPA", "CDR-L3": "SSRDSSYFQVF", "replicates, log10 nM": "4.05 n.d. n.d.", "mean log10 Kd (nM)": "4.05", "control signals": "1 of 9 (4.18)"}
{"CDR-L1": "AGDSLRYRYAN", "CDR-L2": "GKNNRPS", "CDR-L3": "SSRDSSGFQLF", "replicates, log10 nM": "2.38 2.43 1.88", "mean log10 Kd (nM)": "2.23", "control signals": "5 of 9 (4.22)"}
{"CDR-L1": "EGDSLRYYYAN", "CDR-L2": "EKNNRPS", "CDR-L3": "SSRDSFGFQVF", "replicates, log10 nM": "3.64 3.86 n.d.", "mean log10 Kd (nM)": "3.75", "control signals": "5 of 9 (3.27)"}
{"CDR-L1": "EGDSLHYYYAN", "CDR-L2": "GKNNRPS", "CDR-L3": "RSRDSHGFQVF", "replicates, log10 nM": "n.d. n.d. n.d.", "mean log10 Kd (nM)": "n.d.", "control signals": "3 of 9 (4.45)"}
{"CDR-L1": "EGDSDRYYYHN", "CDR-L2": "GKNNRPS", "CDR-L3": "SSRDSSGFKVF", "replicates, log10 nM": "2.91 2.88 2.83", "mean log10 Kd (nM)": "2.88", "control signals": "4 of 9 (3.42)"}
{"CDR-L1": "EGDSLRYYYAN", "CDR-L2": "GKNVRPS", "CDR-L3": "SSRDSSNFSVF", "replicates, log10 nM": "2.87 3.01 3.10", "mean log10 Kd (nM)": "2.99", "control signals": "2 of 9 (4.19)"}
{"CDR-L1": "EGDSQRYYYAN", "CDR-L2": "GKNNRGS", "CDR-L3": "SSRDSSGFQVP", "replicates, log10 nM": "2.83 4.23 n.d.", "mean log10 Kd (nM)": "3.53", "control signals": "3 of 9 (3.38)"}
{"CDR-L1": "EGDSLRVYYAN", "CDR-L2": "GKNNRES", "CDR-L3": "MSRDSSGFQVF", "replicates, log10 nM": "3.91 4.34 3.49", "mean log10 Kd (nM)": "3.91", "control signals": "2 of 9 (4.64)"}
{"CDR-L1": "EGDSLRYYQAN", "CDR-L2": "WKNNRPS", "CDR-L3": "SSKDSSGFQVF", "replicates, log10 nM": "4.68 n.d. n.d.", "mean log10 Kd (nM)": "4.68", "control signals": "3 of 9 (3.59)"}
{"CDR-L1": "EGDSLRYYYAN", "CDR-L2": "GKNNRPS", "CDR-L3": "SSRDSSGFQPF", "replicates, log10 nM": "2.94 3.30 3.44", "mean log10 Kd (nM)": "3.23", "control signals": "3 of 9 (3.63)"}
{"CDR-L1": "EGDSLRYGYAN", "CDR-L2": "GKNNRPS", "CDR-L3": "PSRDSSGFQFF", "replicates, log10 nM": "1.50 1.47 0.88", "mean log10 Kd (nM)": "1.28", "control signals": "6 of 9 (3.71)"}
{"CDR-L1": "EGDSLRYYYAY", "CDR-L2": "GKNNRPS", "CDR-L3": "SSRDSSGGVVF", "replicates, log10 nM": "3.99 n.d. 4.61", "mean log10 Kd (nM)": "4.30", "control signals": "5 of 9 (3.59)"}
{"CDR-L1": "EGDSLRLYFAT", "CDR-L2": "GKNNRPS", "CDR-L3": "SSRDSSGFQVF", "replicates, log10 nM": "4.49 4.07 3.50", "mean log10 Kd (nM)": "4.02", "control signals": "2 of 9 (4.64)"}
{"CDR-L1": "EGDSLRYYYAN", "CDR-L2": "GKNNRPS", "CDR-L3": "NSRDSYGKQVF", "replicates, log10 nM": "4.18 3.54 3.00", "mean log10 Kd (nM)": "3.57", "control signals": "1 of 9 (3.22)"}
{"CDR-L1": "EGDSQRYYYAN", "CDR-L2": "GKNQRPS", "CDR-L3": "SSRDSSGCQVF", "replicates, log10 nM": "3.16 3.78 3.20", "mean log10 Kd (nM)": "3.38", "control signals": "1 of 9 (4.75)"}
{"CDR-L1": "EGDSLRYYSAN", "CDR-L2": "GKINRPS", "CDR-L3": "SSRDNSGFQVF", "replicates, log10 nM": "4.49 3.17 n.d.", "mean log10 Kd (nM)": "3.83", "control signals": "2 of 9 (4.80)"}
{"CDR-L1": "EGDMLRYYYAN", "CDR-L2": "GKNNRPV", "CDR-L3": "SSRDSSGFMVF", "replicates, log10 nM": "n.d. n.d. 4.19", "mean log10 Kd (nM)": "4.19", "control signals": "0 of 9"}
{"CDR-L1": "EGKSLRYYYAN", "CDR-L2": "GKNWRPS", "CDR-L3": "SSRMSSGFQVF", "replicates, log10 nM": "5.20 3.01 n.d.", "mean log10 Kd (nM)": "4.10", "control signals": "3 of 9 (4.24)"}

Top 2 of the variants detected in all replicates, tightest first:

| CDR-L1 | CDR-L2 | CDR-L3 | replicates, log10 nM | mean log10 Kd (nM) | control signals |
|---|---|---|---|---|---|
| EGDSLRYGYAN | GKNNRPS | PSRDSSGFQFF | 1.50 1.47 0.88 | 1.28 | 6 of 9 (3.71) |
| AGDSLRYRYAN | GKNNRPS | SSRDSSGFQLF | 2.38 2.43 1.88 | 2.23 | 5 of 9 (4.22) |

Parent in this assay: reference entry 2.31, copy in this library 2.25. Background: pairings of library AAYL52 with three empty control strains gave a value in 28% of cases (median 3.91, 5th percentile 2.90). Values in that range, when seen in few replicates, are hard to tell from nonspecific mating. Also given: how often the same scFv was detected with the empty control strains, with their mean in brackets.